In patent US20240174690A1, “ANNULATED 2-AMINO-3-CYANO THIOPHENES AND DERIVATIVES FOR THE TREATMENT OF CANCER” (BOEHRINGER INGELHEIM INTERNATIONAL GMBH, priority 2021, published 2024):

What was measured:
[1] = tested on: KRAS G12D-dependent Ba/F3 cells; test: Ba/F3 proliferation assay, KRAS G12D; conditions: read-out: KRAS G12D Ba/F3 IC50, 72 h, AlamarBlue
Method: Ba/F3 cells are ordered from DSMZ (ACC300, Lot17) and grown in RPMI-1640 (ATCC 30-2001)+10% FCS+10 ng/mL IL-3 at 37° C. in 5% CO2 atmosphere. Plasmids containing KRASG12 mutants (i.e. […], G12C, G12V) are obtained from GeneScript. To generate KRASG12-dependent Ba/F3 models, Ba/F3 cells are transduced with retroviruses containing vectors that harbor KRASG12 isoforms. Platinum-E cells (Cell Biolabs) are used for retrovirus packaging. Retrovirus is added to Ba/F3 cells. To ensure infection, 4 μg/mL polybrene is added and cells are spinfected. Infection efficiency is confirmed by measuring GFP-positive cells using a cell analyzer. Cells with an infection efficiency of 10% to 20% are further cultivated and puromycin selection with 1 μg/mL is initiated. As a control, parental Ba/F3 cells are used to show selection status. Selection is considered successful when parental Ba/F3 cells cultures died. […]
For proliferation assays, Ba/F3 cells are seeded into 384-well plates at 1.5×10^3 cells/60 μL in growth media (RPMI-1640+10% FCS). […] AlamarBlue™ (ThermoFisher), a viability stain, is added and fluorescence measured in the PerkinElmer Envision HTS Multilabel Reader. The raw data are imported into and analyzed with the Boehringer Ingelheim proprietary software MegaLab (curve fitting based on the program PRISM, GraphPad Inc.).

[2] = tested on: AsPC-1 cells; test: AsPC-1 CTG proliferation assay (120 h) (pancreatic cancer, G12D); conditions: read-out: AsPC-1 IC50
Method: AsPC-1 CTG Proliferation Assay (120 h) (Pancreatic Cancer, G12D)
The CTG assay is designed to measure quantitatively the proliferation of AsPC-1 cells (ATCC […]), using the CellTiter Glow Assay Kit (Promega G7571). Cells are grown in RPMI medium (ATCC) supplemented with Fetal Calf Serum (Life Technologies, Gibco BRL, Cat. No. 10270-106). On “day 0” 2000 AsPC-1 cells are seeded in 60 μL RPMI ATCC+10% FCS+Penstrep in a 384-well plate, flat and clear bottom (Greiner, PNr. 781091). Cells are then incubated in the plates at 37° C. in a CO2 incubator overnight. On day 1, compounds (10 mM stock in DMSO) are added with the ECHO acoustic liquid handler system (Beckman Coulter), including DMSO controls. Plates are incubated for 120 h, and cell viability is measured using CellTiter-Glo luminescent cell viability reagent (Promega product code G7570). Viability (stated as percent of control) is defined as relative luminescence units RLU of each well divided by the RLU of cells in DMSO controls. IC50 values are determined from viability measurements by non-linear regression using a four-parameter model.

[3] = Plasma protein binding assay (PPB), equilibrium dialysis, 10% FCS in PBS; conditions: fraction unbound
Method: Binding of test compounds to plasma was determined using equilibrium dialysis (ED) and quantitative mass spectrometry interfaced with liquid chromatography (LC-MS). In brief, ED was performed with dialysis devices consisting of two chambers separated by a semipermeable membrane with a molecular weight cut-off of 5-10 kg/mol. One chamber was filled with 10% FCS in PBS containing 1-10 μmol/L test compound and the other chamber was filled with phosphate-buffer saline (PBS) with or without dextran. The dialysis chamber was incubated for 3-5 hours at 37° C. After incubation, protein was precipitated from aliquots of each chamber and the concentration of test compound in the supernatant of the plasma-containing compartment (Cserum) and of the buffer-containing compartment (Cbuffer) was determined by LC-MS. The fraction of unbound test compound (not bound to plasma) (fu) was calculated according to the following equation: […]

[4] = tested on: Caco-2 cell monolayers; test: Caco-2 assay (permeability PappAB, PappBA, efflux ratio); conditions: 10 μM test compound, pH 7.4
Method: The assay provides information on the potential of a compound to pass the cell membrane, on the extent of oral absorption as well as on whether the compound is actively transported by uptake and/or efflux transporters. Permeability measurements across polarized, confluent Caco-2 cell monolayers grown on permeable filter supports (Corning, catalog #3391) are used. […] Passive diffusion and/or active transport of compounds across the monolayer is measured in both apical to basolateral (a-b) and basolateral to apical (b-a) direction. a-b permeability (PappAB) represents drug absorption from the intestine into the blood and b-a permeability (PappBA) drug secretion from the blood back into the intestine via both passive permeability as well as active transport mechanisms mediated by efflux and uptake transporters that are expressed on the Caco-2 cells. […] Concentrations of test compounds in samples were measured by HPLC/MS/MS, samples from the donor compartment were diluted 1:50 (v:v) with assay buffer, samples from receiver compartment were measured without dilution.
Apparent permeabilities in a-b (PappAB) and b-a (PappBA) directions are calculated according to the formula: […]
Caco-2 efflux ratios (ER) are calculated as the ratio of PappBA/PappAB.

Cc1ccncc1-c1cn(-c2cc(O[C@@H](C)[C@@H]3CCCN3C)nc(-c3noc4c3CCC[C@@]43CCCc4sc(N)c(C#N)c43)n2)nn1
IC50 [1]: 4 nM
IC50 [2]: 1320 nM
PPB 10% FCS (% fu) [3]: 5 % fu
Caco ER [4]: 3.8
